From US8513418B2, “Substituted bicyclic methyl amine derivatives as sphingosine-1 phosphate receptors modulators” (Allergan, Inc., priority 2011, dated 2013)

Protein sequences, listed by entry. Tags and fused reporters are not part of them.
UniProt P21453, whole entry: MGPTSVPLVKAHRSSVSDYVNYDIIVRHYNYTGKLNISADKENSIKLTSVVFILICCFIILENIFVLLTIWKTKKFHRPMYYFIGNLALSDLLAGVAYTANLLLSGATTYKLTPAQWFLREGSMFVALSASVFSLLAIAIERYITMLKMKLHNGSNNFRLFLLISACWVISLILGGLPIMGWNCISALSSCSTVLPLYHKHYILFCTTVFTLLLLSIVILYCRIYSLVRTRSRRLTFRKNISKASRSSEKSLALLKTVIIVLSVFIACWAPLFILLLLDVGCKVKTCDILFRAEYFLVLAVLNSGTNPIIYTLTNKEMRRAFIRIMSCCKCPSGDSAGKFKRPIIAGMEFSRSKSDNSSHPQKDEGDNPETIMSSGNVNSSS

Molecular target: human S1P1 receptor (Homo sapiens, UniProt P21453)
Assay: GTP γ35S binding assay for S1P1 activity
Conditions: read-out: S1P1 EC50, membranes of cells stably expressing the S1P1 receptor
Procedure: Novel compounds were synthesized and tested for S1P1 activity using the GTP γ^35S binding assay. These compounds may be assessed for their ability to activate or block activation of the human S1P1 receptor in cells stably expressing the S1P1 receptor. GTP γ^35S binding was measured in the medium containing (mM) HEPES 25, pH 7.4, MgCl2 10, NaCl 100, dithitothreitol 0.5, digitonin 0.003%, 0.2 nM GTP γ^35S, and 5 μg membrane protein in a volume of 150 μl. Test compounds were included in the concentration range from 0.08 to 5,000 nM unless indicated otherwise. Membranes were incubated with 100 μM 5′-adenylylimmidodiphosphate for 30 min, and subsequently with 10 μM GDP for 10 min on ice. Drug solutions and membrane were mixed, and then reactions were initiated by adding GTP γ^35S and continued for 30 min at 25° C. Reaction mixtures were filtered over Whatman GF/B filters under vacuum, and washed three times with 3 mL of ice-cold buffer (HEPES 25, pH7.4, MgCl2 10 and NaCl 100). Filters were dried and mixed with scintillant, and counted for ^35S activity using a 8-counter. Agonist-induced GTP γ^35S binding was obtained by subtracting that in the absence of agonist. Binding data were analyzed using a non-linear regression method. In case of antagonist assay, the reaction mixture contained 10 nM […] in the presence of test antagonist at concentrations ranging from 0.08 to 5000 nM. […]

- EC50: 637 nM
Compound: OCCNCc1ccc(CCCCCCc2ccccc2)c2cccnc12
